Assay results reported in PubChem BioAssay AID624354 (Sanford-Burnham Center for Chemical Genomics, 2012).
The list shows a part of the results, in another mix than the full data. Activity calls are given as the source filed them.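 How the source made its calls: active means compounds causing at least 50% loss of cell viability in the single-dose screen, relative to plate controls; inactive means the rest.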

assay: viability loss with TRAIL in NB7+C8 cells, primary screen, TRAIL sensitizer project, cell-based, ATPlite luminescence (AID 624354); conditions: at 10 µM, hits give high values

Row | Structure (SMILES) | inhibition (viability loss, TRAIL sensitization)
1 | CC1CCN(C(=O)Oc2c(Cl)cc(Cl)c3cccnc23)CC1 | inactive: -3.98%
2 | O=P1(N(CCCl)CCCl)OCCCS1 (stereo not given) | inactive: 11.2%
3 | O=C(Nc1cc([As](=O)(O)O)ccc1O)c1ccccc1 | inactive: 7.34%
4 | CC(C)(C)C(=O)NC(Sc1ccncn1)C(Cl)(Cl)Cl (stereo not given) | inactive: 9.21%
5 | O=[N+]([O-])c1ncn(CCn2ncnc2[N+](=O)[O-])n1 | inactive: -22.2%
6 | O=[N+]([O-])c1cccc(NC2=NCC(CBr)S2)c1 (stereo not given) | inactive: 4.2%
7 | COC(=O)C1(C)COP(=O)(Nc2ccccc2)OC1 (stereo not given) | inactive: -12.7%
8 | O=C(O)CNc1ccc([As](=O)(O)O)cc1 | inactive: -6.62%
9 | CC1CCNP(=O)(N(CCCl)CCCl)O1 (stereo not given) | inactive: -17.3%
10 | O=C(O)C(O)c1ccc(N(CCCl)CCCl)cc1 (stereo not given) | inactive: 4.18%
11 | CCOC(=O)Nc1ccc([As](=O)(O)O)c(O)c1 | inactive: -12.2%
12 | CCCCOc1ccc(C(=O)NCC2(N3CCCCC3)CCCCC2)cc1OC | inactive: -4.98%
13 | Cc1cc(SC(NC(=O)c2ccccc2)C(Cl)(Cl)Cl)nc(C(C)C)n1 (stereo not given) | inactive: 2.04%
14 | COP(=O)(OC)N1CC1c1ccccc1 (stereo not given) | inactive: 15.6%
15 | CCOC(=O)Nc1cccc([As](=O)(O)O)c1 | inactive: -4.48%
16 | O=[N+]([O-])c1ccc(Nc2ccc(Oc3ccc([N+](=O)[O-])cc3[N+](=O)[O-])cc2)c([N+](=O)[O-])c1 | inactive: 14.7%
17 | Cc1cc(SC(NC=O)C(Cl)(Cl)Cl)ncn1 (stereo not given) | inactive: 1.26%
18 | O=P(Nc1ccccn1)(c1cccc2ccccc12)c1cccc2ccccc12 | inactive: -5.36%
19 | COP1(=S)c2c(C)nn(CCC#N)c2N=C(c2ccc(F)cc2)N1C (stereo not given) | inactive: -4.64%
20 | COC(=O)C1(C)COP(=O)(N2CCCC2)OC1 (stereo not given) | inactive: -1.24%
21 | O=C(COc1ccccc1)OC1CN2CCC1CC2 (stereo not given) | inactive: 6.96%
22 | O=C(Nc1ccncc1[N+](=O)[O-])c1ccc([N+](=O)[O-])cc1[N+](=O)[O-] | inactive: 7.92%
23 | O=C(O)C(=O)c1ccc(N(CCCl)CCCl)cc1 | inactive: 2.21%
24 | CCOC(=O)c1ccc(NC(=O)C(C)(CCl)SC)cc1 (stereo not given) | inactive: -9.8%
25 | O=C(OC1CN2CCC1CC2)c1cccc([N+](=O)[O-])c1 (stereo not given) | inactive: -14.4%

Row | Structure (SMILES) | inhibition (viability loss, TRAIL sensitization)
26 | CSc1ccc(Nc2c([N+](=O)[O-])cc([N+](=O)[O-])cc2[N+](=O)[O-])cc1 | inactive: 33.7%
27 | CCC(C)N(CC(C)C)C(=S)SC(NC(C)=O)C(Cl)(Cl)Cl (stereo not given) | inactive: 9.49%
28 | O=C(OC1CN2CCC1CC2)C12CC3CC(CC(C3)C1)C2 (stereo not given) | inactive: 6.97%
29 | Cc1cc(=O)[nH]c(N[N+](=O)[O-])n1 | inactive: -2.28%
30 | Cc1c2c(nc3ccccc13)SC(C(Cl)Cl)C2 (stereo not given) | inactive: 11.7%
31 | COc1ccc2nc(NP(=O)(c3ccccc3)c3ccccc3)sc2c1 | inactive: -9.07%
32 | COc1cc(I)ccc1[As](=O)(O)O | inactive: -20.9%
33 | O=P1(N(CCCl)CCCl)OCCCN1CCCl (stereo not given) | inactive: -2.65%
34 | O=P1(N(CCCl)CCCl)Nc2ccccc2N1 | inactive: -8.93%
35 | COc1ccc(N/C(=N/P(=O)(N2CCOCC2)N2CCOCC2)N2CCOCC2)cc1 | inactive: -2.1%
36 | O=[N+]([O-])c1cc(Oc2ccc([N+](=O)[O-])cc2C(F)(F)F)cc([N+](=O)[O-])c1 | inactive: -0.686%
37 | C[As](=O)(O)c1cccc(C(=O)O)c1 | inactive: 3.9%
38 | O=[As](O)(c1ccc(O)cc1)c1ccccc1O | inactive: -11.3%
39 | COc1cc(C(=O)NCC2(N3CCOCC3)CCCCC2)ccc1OCC(C)C | inactive: 7.6%
40 | O=[N+]([O-])c1ccc(-c2cc([N+](=O)[O-])c(O)c([N+](=O)[O-])c2)cc1 | inactive: -5.33%
41 | Cc1ccc2nc3c(c(C)c2c1)CC(C(Cl)Cl)S3 (stereo not given) | inactive: -3.96%
42 | Cc1ccc(OP(=O)(Nc2ccc([N+](=O)[O-])cn2)Oc2ccc(C)cc2)cc1 | inactive: -4.99%
43 | [N-]=[N+]=NC1CCCCC1NC(=O)c1cc([N+](=O)[O-])cc([N+](=O)[O-])c1 (stereo not given) | inactive: -0.783%
44 | CC(C)c1ccc(OP(=O)(Nc2ccccn2)Oc2ccccc2F)cc1 (stereo not given) | inactive: -4.06%
45 | COC(=O)C1(C)COP(=O)(N2CCCCCC2)OC1 (stereo not given) | inactive: -5.01%
46 | ClCCSc1nnc(-c2cccnc2)o1 | inactive: -1.48%
47 | O=C(OC1CN2CCC1CC2)c1cccc2[nH]cnc12 (stereo not given) | inactive: 4.47%
48 | CCN(CC)C(=S)SC(NC=O)C(Cl)(Cl)Cl (stereo not given) | inactive: -13.7%
49 | CC(C)NC(=O)NP(=O)(Oc1ccccc1)Oc1ccccc1 | inactive: -3.09%
50 | O=[N+]([O-])c1cc([N+](=O)[O-])c(-c2ccn[nH]2)s1 | inactive: 3.75%
